From patent publication US7388010B2, “Quinoxalinone derivatives” (Banyu Pharmaceutical Co., Ltd., priority 2002, dated 2008)

Protein sequences, listed by entry. Tags and fused reporters are not part of them.
UniProt P11802, whole entry: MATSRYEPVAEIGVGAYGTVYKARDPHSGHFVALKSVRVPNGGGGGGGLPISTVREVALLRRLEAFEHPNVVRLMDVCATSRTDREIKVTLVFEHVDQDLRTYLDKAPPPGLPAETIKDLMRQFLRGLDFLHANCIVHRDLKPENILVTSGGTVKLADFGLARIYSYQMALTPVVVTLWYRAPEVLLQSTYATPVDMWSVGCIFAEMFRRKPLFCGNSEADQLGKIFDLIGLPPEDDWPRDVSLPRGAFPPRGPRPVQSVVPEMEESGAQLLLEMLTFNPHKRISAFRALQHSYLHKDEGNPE
UniProt P30279, whole entry partner: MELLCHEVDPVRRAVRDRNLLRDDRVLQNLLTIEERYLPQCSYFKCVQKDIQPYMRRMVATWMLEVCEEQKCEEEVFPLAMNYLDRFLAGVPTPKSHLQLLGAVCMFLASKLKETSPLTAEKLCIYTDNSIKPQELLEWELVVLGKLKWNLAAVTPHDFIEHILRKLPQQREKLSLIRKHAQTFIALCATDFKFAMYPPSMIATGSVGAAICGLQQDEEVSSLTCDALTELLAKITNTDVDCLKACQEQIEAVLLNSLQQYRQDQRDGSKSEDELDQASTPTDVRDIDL

Key:
HCT116 cells = experiment: Inhibitory activity of BrdU uptake in HCT116 cells (Cell Proliferation ELISA, chemiluminescence); details: read-out: IC50 on BrdU uptake; HCT116 cells derived from human colon cancer, cultured with compound for 12 hours, BrdU pulse 1 hour; tested form: HCl
Procedure: Growing cells perform DNA duplication in the S phase of the cell cycle, and divide into daughter cells in the M phase via the G2 phase. As an index for the cell growth, there is a method to determine the amount of BrdU taken into newly synthesized DNAs in the DNA duplicating cells ((J. Immunol Methods, vol. 82, p. 169-179 (1985); J. Immunolog. Methods, vol. 106, p. 95-100 (1988); Cytometry, vol. 14, p. 640-648 (1993)). Inhibitory activities of BrdU uptake was determined in order to investigate the effect of the compounds of the present invention against cancer cells.
HCT116 cells derived from human colon cancer were cultured in Dulbecco's modified Eagle's medium containing 10% fetal bovine serum at 37° C. in the presence of 5% carbon dioxide under an atmosphere of saturated steam. […]
Quantitative determination of BrdU uptake was performed using the Cell Proliferation ELISA, BrdU (chemiluminescence)(Roche Diagnostics). […] The cells were incubated at room temperature for 10 minutes and chemical luminescence was determined with a luminometer.
As typical compounds of the present invention, the compounds [11], [12], [39], [51], [71], [83], [85], [134] and [141] were chosen, and IC50 values of these compounds on BrdU uptake were determined.

cyclin D2-Cdk4 = cyclin D2-Cdk4 (Homo sapiens, UniProt P11802); experiment: Cyclin D2-Cdk4 inhibitory activity (33P-ATP phosphorylation of RB peptide substrate); assay type: biochemical; details: read-out: IC50 against cyclin D2-Cdk4 activity; 50 μM ATP, 100 μM substrate peptide, 30° C., 45 minutes; tested form: HCl
Excerpt: cDNAs of Cdk4 and its activating factor cyclin D2 were each introduced into a baculovirus expression vector to obtain a recombinant baculovirus; it was then co-infected to an insect cell Sf9 to highly express active cyclin D2/Cdk4 complexes. The cells were recovered, solubilized and the enzymes were purified by HPLC column chromatography (The Embo Journal, vol. 15, 7060-7069 (1996)).
In the determination of cyclin D2-Cdk4 activity, a synthetic peptide Arg-Pro-Pro-Thr-Leu-Ser-Pro-Ile-Pro-His-Ile-Pro-Arg corresponding to the amino acid number 775-787 of RB protein was used as a substrate [The EMBO Journal, vol. 15, 7060-7069 (1996)].
The reaction was carried out according to a method partially modifying Kitagawa et al. (Oncogene, vol. 7, 1067-1074 (1992)). […] The peptide substrate was adsorbed on a P81 paper filter in a 96-well plate, and the plate was washed several times with 75 mM phosphate buffer, and then its radioactivity was measured by a liquid scintillation counter. […]
The compounds in the following Working Examples were chosen as typical compounds of the present invention, and IC50 values against cyclin D2-Cdk4 activity of those compounds were determined.

IC50 (HCT116 cells): 20 nM
IC50 (cyclin D2-Cdk4): 26 nM
SMILES: Cc1cc2c3nc(c(=O)[nH]c3c1)-c1cccc3c(=O)n([nH]c13)CCN1CC[C@@H](C1)O2
